From doi:10.1101/2023.10.07.561329 (bioRxiv, 2023)

Biological target: T1, KLHL22^1-178 (Homo sapiens, UniProt Q53GT1 1-178)
T1 sequence: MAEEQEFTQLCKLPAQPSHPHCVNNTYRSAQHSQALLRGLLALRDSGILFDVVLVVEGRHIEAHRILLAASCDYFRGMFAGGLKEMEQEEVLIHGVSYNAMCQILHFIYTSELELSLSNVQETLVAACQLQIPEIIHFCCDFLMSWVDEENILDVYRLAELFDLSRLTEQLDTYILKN
Assay: SEC-MALS

B1: CUL3^WT-RBX1 (complex)
chain 1: not shown
chain 2: not shown
stoichiometry N: 2 CUL3-RBX1 per KLHL22^1-178 dimer
